Only a part is listed here, and it is no random draw. Calls of active or inactive are those of the source. No stated cut-off is given here; in the data, active means inhibition mostly above about 23% (no sharp cut-off); inactive means mostly below about 18%.

Protein sequences, listed by entry. Tags and fused reporters are not part of them.
UniProt P47898, whole entry, looked up: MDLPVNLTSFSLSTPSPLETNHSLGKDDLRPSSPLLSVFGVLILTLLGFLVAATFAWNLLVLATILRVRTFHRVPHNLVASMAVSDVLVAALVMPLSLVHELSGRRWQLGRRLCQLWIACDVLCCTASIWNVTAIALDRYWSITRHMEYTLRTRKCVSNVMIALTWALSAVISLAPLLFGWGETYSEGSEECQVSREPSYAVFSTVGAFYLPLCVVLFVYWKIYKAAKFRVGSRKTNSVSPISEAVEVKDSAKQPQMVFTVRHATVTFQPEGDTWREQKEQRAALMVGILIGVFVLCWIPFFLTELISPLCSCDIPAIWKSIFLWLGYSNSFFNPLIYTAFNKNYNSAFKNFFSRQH

The target of this assay is 5-hydroxytryptamine receptor 5A (Homo sapiens) (UniProt P47898). As to the kind of experiment: HTR5A inverse agonists in luminescence cell assay, primary screen, counter-screen for OPRM1-OPRD1 heterodimer inverse agonist project, full-deck HTS (AID 504634).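 Further: 0% = cells with DMSO and 100% = no-cell wells with DMSO.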 Particulars: HTR5A cell line, inverse agonism, at 9.3 µM, stronger effect = higher value. (In general: A counterscreen serves to expose hits that act by an unwanted route or on another target.)
As to `O=C(Cn1cnc2c(OCc3ccccc3)ncnc21)N[C@H](CO)Cc1cc2ccccc2[nH]1`, the inhibition (as a rule, the change of the read-out against control, counted positive when it falls) was inactive: 0.69%.

Consider `COc1ccc(Cl)cc1NC(=O)Cn1c(NCCO)nc2ccccc21`, for which the inhibition is inactive: -12.3%.

For `CCN1C(=O)CC(N2CCC(Nc3ccc(OC)cc3)CC2)C1=O` (stereo not given), the inhibition is inactive: 5.9%.

On to `O=C(CSc1nc2ccccc2n1CC(=O)NCc1ccccc1)NCc1ccco1`, for which the inhibition is inactive: 3.7%.

Turning to `Cn1c(=O)c2ncn(CC(=O)NCCOc3ccc(C(C)(C)C)cc3)c2n(C)c1=O`, the inhibition was inactive: -4.85%.

As for `CC(=O)Nc1ccc(NC(=O)C2CC(=O)Nc3nc4ccccc4n32)cc1` (stereo not given), the inhibition was inactive: 5.87%.

Turning to `O=S(=O)(c1ccc(Br)cc1)N1CCn2c(nc3ccccc32)C1`, the inhibition was inactive: -12.6%.

In the case of `Cn1c(=O)c2c(ncn2CC(=O)N/N=C/C=C/c2ccccc2)n(C)c1=O`, the inhibition is inactive: 14.4%.

In the case of `O=S(=O)(c1ccc(Cl)c(Cl)c1)N1CCc2nc3ccccc3n2CC1`, the inhibition was inactive: -6.12%.

In the case of `COc1ccc(CN(C)C(=O)Cn2cnc3c(SC)nc(N)nc32)cc1OC`, the inhibition was inactive: 9.51%.

As for `CC1CC(C)CN(Cc2nc3c(c(=O)n(C)c(=O)n3C)n2CCN2CCOCC2)C1` (stereo not given), the inhibition is inactive: 4.67%.

Take `O=S(=O)(Nc1ccc2c(c1)nc1n2CCN(Cc2ccccc2)C1)c1ccccc1`: the inhibition was inactive: -19.3%.

For the compound `CCCC1OP(=O)(Nc2ccccc2)OCC1CC` (stereo not given), the inhibition was inactive: 2.07%.

As to `O=C(/C=C/c1ccccc1)OC1CN2CCC1CC2` (stereo not given), the inhibition was inactive: -16.2%.

In the case of `COc1cccc(NC(=O)Cn2c(SCC(=O)N3CCOCC3)nc3ccccc32)c1`, the inhibition was inactive: -18.7%.

As for `COc1cccc(C(=O)N2CCn3c2nc2ccccc23)c1`, the inhibition was inactive: -6.46%.

Turning to `COc1ccc(Cc2nc3ccccc3n2CC(=O)N/N=C/c2ccc(C)cc2O)cc1OC`, the inhibition was inactive: -3.63%.

Consider `CN1CN(c2ccccc2)C2(CCN(CCCSc3ccccc3NC(=O)/C=C/c3ccccc3)CC2)C1=O`, for which the inhibition was inactive: 13.7%.

Turning to `CCN(c1ccccc1)S(=O)(=O)c1ccc(OC)c(NC(=O)Cn2cnc3c2c(=O)n(C)c(=O)n3C)c1`, the inhibition is inactive: 2.82%.

Turning to `CCN(CC)c1ccc(NC(=O)Cn2c(C(C)NC(=O)c3ccccc3)nc3ccccc32)cc1` (stereo not given), the inhibition is inactive: 6.85%.

As to `Cc1ccc(C(=O)OC2CN3CCC2CC3)cc1` (stereo not given), the inhibition is inactive: 4.97%.

Regarding `CC1CCC(C(C)C)C(OP(=O)(Nc2ccccn2)c2ccccc2)C1` (stereo not given), the inhibition is inactive: -2.98%.

On to `CCN(CC)C(=O)Cn1c(=O)n(C)c2ccccc21`, for which the inhibition is inactive: -11.8%.

On to `Cc1nn(-c2ccccc2)c2c1P(=O)(N1CCOCC1)N(C)C(c1ccccc1)=N2` (stereo not given), for which the inhibition is inactive: -7.32%.

Regarding `Cc1cccc(Cn2c(=O)c3c(nc4n3CCN4Cc3ccco3)n(C)c2=O)c1`, the inhibition is inactive: -7.35%.

The record behind these values is PubChem BioAssay AID504634 (The Scripps Research Institute Molecular Screening Center, 2011).
